In PubChem BioAssay AID488 (PCMD, 2006):
Only a part is listed here, and it is no random draw. The source made the active and inactive calls. No stated cut-off is given here; in the data, active means inhibition above about 22% (passing the limit was not always enough); inconclusive means no clear call, values can overlap the other calls.

target: Cathepsin B (Homo sapiens) (UniProt P07858); experiment: cathepsin B inhibitors from pooled compounds, primary screen, biochemical, compound mixtures, AMC fluorescence (AID 488); conditions: Purified cathepsin B, AMC dipeptide fluorescence, stronger effect = higher value,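 ten-compound pools at 5 µM per compound and 50 µM total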;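 further: 0% = enzyme without compound and 100% = no enzyme blank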

| SMILES | inhibition |
| --- | --- |
| O=C(OC1CN2CCC1CC2)C1c2ccccc2Oc2ccccc21 (stereo unspecified) | inactive: 0.71% |
| N#CC1(Nc2ccccc2)CCN(CCc2ccccc2)CC1 | inactive: 3.67% |
| N/C(=N\O)c1c(N)no[n+]1[O-] | inactive: 6.25% |
| CCOc1ncccc1C(=O)NCC1(N2CCOCC2)CCCCC1 | inactive: 2.46% |
| CCC(CO)(C(=O)OC1CN2CCC1CC2)c1ccccc1 (stereo unspecified) | inactive: 6.11% |
| Fc1ccccc1NC1CCN(Cc2ccccc2)CC1 | inactive: 6.48% |
